Protein sequences, listed by entry. Tags and fused reporters are not part of them. Residues count along the entry.
UniProt P25774, 115-331 limits assumed: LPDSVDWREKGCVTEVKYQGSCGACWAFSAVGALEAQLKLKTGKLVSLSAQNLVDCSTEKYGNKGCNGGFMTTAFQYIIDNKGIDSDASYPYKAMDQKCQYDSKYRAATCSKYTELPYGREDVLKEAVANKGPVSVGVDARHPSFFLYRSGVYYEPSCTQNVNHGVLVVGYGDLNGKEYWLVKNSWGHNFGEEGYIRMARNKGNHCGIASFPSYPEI

According to BindingDB's records for US10172843:

Biological target: Cathepsin S (Homo sapiens, UniProt P25774)
Test: Cathepsin Enzyme Inhibition Assay
Method: Enzyme activity is measured by observing the increase in fluorescence intensity caused by cleavage of a peptide substrate containing a fluorophore whose emission is quenched in the intact peptide.Assay buffer: 100 mM potassium phosphate pH 6.5, EDTA-Na 5 mM, Triton X-100 0.001%, DTT 5 mM.Enzymes (all at 1 nM): human and mouse Cathepsin S,

Row | SMILES | IC50 [nM]
1 | Cn1nc(-c2ccc(C(F)(F)F)cc2)nc1CN1CCC(n2c(=O)n(C)c3ccccc32)CC1 | 585
2 | Cc1cn(-c2ccc(C(F)(F)F)cc2)nc1CN1CCC(n2c(=O)n(C)c3ccccc32)CC1 | 1670
3 | Cc1[nH]c(-c2ccc(S(C)(=O)=O)cc2)nc1CN1CCC(n2c(=O)n(C)c3ccccc32)CC1 | 175
4 | Cn1nc(CN2CCC(n3c(=O)n(C)c4ccccc43)CC2)nc1-c1ccc(C(F)(F)F)cc1 | 1380
5 | Cc1[nH]c(-c2ccc(Cl)cc2)nc1CN1CCC(n2c(=O)[nH]c3cc(Cl)ccc32)CC1 | 1040
6 | Cc1sc(-c2ccc(C(F)(F)F)cc2)nc1CN1CCC(n2c(=O)n(C)c3ccccc32)CC1 | 2040
